Experimental data taken from US20120220665A1, “Inhibiting Neurotransmitter Reuptake” (MAYO FOUNDATION FOR MEDICAL EDUCATION AND RESEARCH, priority 2009, published 2012).

Test system: hSERT (S), hNET (N), hDAT (D)
Assay: Comparison of binding potency across the three human transporters
Conditions: order by KD

| SMILES | Potency (rank order of transporter binding) |
| --- | --- |
| Fc1ccc([C@@H]2CCNC[C@H]2COc2ccc3c(c2)OCO3)cc1 [Paroxetine, reference compound] | S > N > D |
| CN[C@H]1CC[C@@H](c2ccc(Cl)c(Cl)c2)c2ccccc21 [Sertraline, reference compound] | S > D > N |
